Results reported in paper PMC10465358 (Nature Microbiology, 2023).

Tested on: P. bivia GH13
Assay: BODIPY fluorescent starch amylase assay with purified enzyme

Structure (SMILES): C[C@H]1O[C@H](O[C@H]2[C@H](O)[C@@H](O)[C@@H](O[C@H]3[C@H](O)[C@@H](O)C(O)O[C@@H]3CO)O[C@@H]2CO)[C@H](O)[C@@H](O)[C@@H]1N[C@H]1C=C(CO)[C@@H](O)[C@H](O)[C@H]1O (stereo partly shown) [acarbose]
- IC50: 0.84 µM
